# Results published in patent publication US6265551A, “Form of dipeptidylpeptidase IV (CD26) found in human serum, antibodies thereto, and uses thereof” (Dana-Farber Cancer Institute, Inc., priority 1996, dated 2001).
# Protein sequences, listed by entry. Tags and fused reporters are not part of them. Residues count along the entry.
# UniProt P27487, 29-766 limits assumed: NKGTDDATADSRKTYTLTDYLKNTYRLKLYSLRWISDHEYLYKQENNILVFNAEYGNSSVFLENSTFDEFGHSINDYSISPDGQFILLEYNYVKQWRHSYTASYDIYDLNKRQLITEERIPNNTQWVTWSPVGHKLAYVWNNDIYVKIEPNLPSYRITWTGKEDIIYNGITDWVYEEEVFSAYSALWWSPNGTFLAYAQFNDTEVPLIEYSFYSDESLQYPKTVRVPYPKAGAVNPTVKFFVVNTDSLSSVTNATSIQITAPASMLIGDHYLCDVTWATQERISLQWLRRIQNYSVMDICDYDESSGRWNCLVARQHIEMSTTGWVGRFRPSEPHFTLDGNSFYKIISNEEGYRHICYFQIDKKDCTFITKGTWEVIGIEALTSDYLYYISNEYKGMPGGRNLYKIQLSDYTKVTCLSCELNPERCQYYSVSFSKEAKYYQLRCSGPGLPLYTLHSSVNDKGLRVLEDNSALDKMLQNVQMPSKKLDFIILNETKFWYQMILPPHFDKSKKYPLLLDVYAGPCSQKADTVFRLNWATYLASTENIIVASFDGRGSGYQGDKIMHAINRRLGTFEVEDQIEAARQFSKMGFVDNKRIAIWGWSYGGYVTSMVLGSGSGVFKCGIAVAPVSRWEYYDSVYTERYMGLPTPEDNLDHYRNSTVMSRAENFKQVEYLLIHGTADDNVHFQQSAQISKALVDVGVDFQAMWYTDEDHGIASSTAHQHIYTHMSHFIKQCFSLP
# Molecular target: recombinant soluble CD26 (rsCD26), full extracellular domain of human T cell membrane CD26/DPPIV, 105 kDa form, from transfected CHO cells (Homo sapiens, UniProt P27487)
# Test: DPPIV enzyme activity: Gly-Pro-pNA hydrolysis, Michaelis-Menten kinetics and inhibition
smiles,measurement,value
CC[C@H](C)[C@H](N)C(=O)N1CCC[C@H]1C(=O)N[C@H](C(=O)O)[C@@H](C)CC [Diprotin A],IC50,125 µM
